Compound activity deposited in PubChem by Broad Institute.
In the library only some 1.2% were active in any assay of this set; here they are far more common.
Yeast UUG start-1: yeast start codon fidelity modulation | S. cerevisiae UUG-firefly luciferase reporter, luminescence/redox ratio | activity score, % at 18.7 µM | 350,000 tested, 0.13% active;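 active = replicate mean at a twofold rise or more, about +100% in these data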;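 also: firefly luciferase made from a UUG start codon reports start codon fidelity; reporter light over untreated wells divided by growth signal over untreated wells; some hits fall short of that in this replicate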
miR122 inh: miR-122 Renilla sensor signal increase in Huh7, primary screen, miR-122 inhibitor project, cell-based, single point, plate reader | Huh7 miR-122 Renilla luciferase sensor, 48 h; neutral wells = 0, positive control = 100 | activation (reporter increase), % at 12.5 µM | actives 0.3% (n = 340,000) | AID 602342, 2012;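 active = mean replicate activation score at least 90 and every replicate individually at or above 90; inconclusive = only one of the two criteria met; inactive = neither criterion met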;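 also: higher luciferase means less miR-122 activity so hits act as miR-122 inhibitors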
Cneo AK release: Cryptococcus neoformans cell lysis inducers, primary screen, AK release luminescence, single concentration; C. neoformans lysis, adenylate kinase release luminescence, 4 h; normalised: neutral wells 0, clomiphene wells 100; lysis activity, % at 15 µM; actives 0.2% (n = 360,000);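 active = mean lysis activity across replicates of at least 80%, whatever share of replicates individually reach that level; inactive = mean lysis activity below 80%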
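Test system: log-phase Cryptococcus neoformans yeast cells; Quantity: yeast cell density of 5 × 10^6 cells/mL; Buffer or medium: YPD; Doses: single compound concentration per well; Timing: 4 h at 37 °C static, read 1 h later; Measured by: AK luminescence; Read-out basis: lysis from increased AK signal; Control set: Clomiphene as positive control.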
Statin myotox sup: suppressors of statin myotoxicity in C2C12 myotubes, primary screen, cell-based, single point, plate reader; C2C12 myotubes + simvastatin, ATP luminescence, 48 h; scaled: DMSO 0, geranylgeraniol control 100; rescue of ATP level, % at 7.49 µM; actives 0.78% (n = 330,000); AID 602340, 2012;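 active = mean ATP rescue above about 67%, or every replicate alone reaching that limit, limit read from the data, passing the limit was not always enough; inconclusive = no clear call, values can overlap the other calls; inactive = mean under the limit and some replicate under it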;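 also: myotubes were challenged with 10 µM simvastatin during compound exposure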
Yeast UUG start-2: enhancers of UUG start codon usage in yeast, dose response, S. cerevisiae, UUG firefly luciferase, cherry-pick, set 2 | shares compounds with Yeast UUG start-1 | luminescence, 4 h; 100% means double the DMSO signal | activation, % at 38 µM | 540 tested, under 10 active;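 active = signal increase whose fitted curve reaches an absolute level of 40 at a concentration under 10 µM; inactive = activity opposite to the expected increase, or the rest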
Active calls of the source: *; i = inactive; ? = inconclusive; / = no result; [ ] = dose if it differs, or a comment.

Start of the listing, in advance, 2 compounds:
No. | molecule | Yeast UUG start-1 | miR122 inh | Cneo AK release
1 | CCC(=O)Nc1ccc2c(c1)OC[C@@H](C)N(Cc1cncnc1)C[C@@H](C)[C@H](OC)CN(C)C2=O | -12 | -3[16.7 µM] | 1
2 | CC(C)NC(=O)Nc1ccc2c(c1)C(=O)N([C@@H](C)CO)C[C@@H](C)[C@@H](CN(C)C(=O)NC1CCCCC1)OCCCC[C@@H](C)O2 | / | -3[16.7 µM] | 1

No. | Statin myotox sup | Yeast UUG start-2
1 | 7 | /
2 | / | /

This part in full, repeating the preview:
No. | molecule | Yeast UUG start-1 | miR122 inh | Cneo AK release
1 | CCC(=O)Nc1ccc2c(c1)OC[C@@H](C)N(Cc1cncnc1)C[C@@H](C)[C@H](OC)CN(C)C2=O | -12 | -3[16.7 µM] | 1
2 | CC(C)NC(=O)Nc1ccc2c(c1)C(=O)N([C@@H](C)CO)C[C@@H](C)[C@@H](CN(C)C(=O)NC1CCCCC1)OCCCC[C@@H](C)O2 | / | -3[16.7 µM] | 1
3 | CCCC#Cc1ccc2c(c1)O[C@@H](CN(C)C(=O)CN(C)C)[C@H](C)CN([C@H](C)CO)S2(=O)=O | 150* | -6[16.7 µM] | -1
4 | C[C@H]1CN([C@@H](C)CO)S(=O)(=O)c2ccc(-c3cncnc3)cc2O[C@@H]1CN(C)C(=O)C1CCCCC1 | 254* | / | 56
5 | CCCC#Cc1ccc2c(c1)O[C@@H](CN(C)C(=O)CN(C)C)[C@H](C)CN([C@@H](C)CO)S2(=O)=O | 3 | -5[16.7 µM] | 6
6 | C[C@H]1CN([C@@H](C)CO)S(=O)(=O)c2ccc(C#Cc3ccncc3)cc2O[C@@H]1CN(C)S(=O)(=O)c1ccccc1 | 126* | ? | -2
7 | C[C@H](CO)N1C[C@H](C)[C@H](CN(C)C(=O)C2CCCCC2)Oc2cc(-c3cncnc3)ccc2S1(=O)=O | 16 | / | 6
8 | Cc1ccc(-c2ccc3c(c2)O[C@@H](CN(C)Cc2cncnc2)[C@@H](C)CN([C@H](C)CO)S3(=O)=O)cc1 | 135* | -8[16.7 µM] | 1
9 | CO[C@@H]1CN(C)C(=O)c2ccc(NC(=O)Cc3ccccc3)cc2OC[C@H](C)N(C(=O)c2ccccc2F)C[C@@H]1C | / | / | -2
10 | C[C@H](CO)N1C[C@H](C)[C@@H](CN(C)C(=O)c2ccccc2)Oc2cc(C#CC3(O)CCCC3)ccc2S1(=O)=O | 12 | 10[16.7 µM] | -4

No. | Statin myotox sup | Yeast UUG start-2
1 | 7 | /
2 | / | /
3 | 0 | i
4 | 12 | i
5 | -11 | /
6 | -36 | i
7 | -1 | /
8 | 12 | i
9 | -20 | /
10 | -19 | /

The list continues.
No. | molecule | Yeast UUG start-1 | miR122 inh | Cneo AK release
11 | CO[C@@H]1CN(C)C(=O)c2ccc(NC(C)=O)cc2OC[C@H](C)N(CC2CCCCC2)C[C@H]1C | -6 | / | 19
12 | CO[C@@H]1CN(C)C(=O)c2cc(NC(=O)Nc3ccc(Cl)cc3)ccc2OC[C@@H](C)N(C)C[C@@H]1C | 56 | / | 39
13 | C/C=C/c1ccc2c(c1)O[C@@H](CN(C)CCC)[C@@H](C)CN([C@@H](C)CO)S2(=O)=O | -16 | -2[16.7 µM] | 1
14 | C[C@H](CO)N1C[C@H](C)[C@H](CN(C)Cc2ccccn2)Oc2cc(-c3cncnc3)ccc2S1(=O)=O | 124* | -6[16.7 µM] | -12
15 | C[C@H]1CN([C@@H](C)CO)S(=O)(=O)c2ccc(-c3cncnc3)cc2O[C@@H]1CN(C)Cc1ccccn1 | 1 | -2[16.7 µM] | -9
16 | CC(C)C#Cc1ccc2c(c1)O[C@@H](CN(C)C(=O)CC1CC1)[C@H](C)CN([C@H](C)CO)S2(=O)=O | 70* | 0[16.7 µM] | 2
17 | C/C=C/c1ccc2c(c1)O[C@H](CN(C)CCC)[C@H](C)CN([C@H](C)CO)S2(=O)=O | 75* | 2[16.7 µM] | -2
18 | COc1ccccc1NC(=O)N(C)C[C@H]1Oc2cc(Br)ccc2S(=O)(=O)N([C@@H](C)CO)C[C@@H]1C | 162* | 28[16.7 µM] | -5
19 | CCCNC(=O)N(C)C[C@@H]1Oc2ncc(-c3ccccc3)cc2C(=O)N([C@H](C)CO)C[C@@H]1C | -5 | -8[16.7 µM] | -1
20 | Cc1ccc(NC(=O)/C(=C\c2cccc([N+](=O)[O-])c2)NC(=O)c2cccs2)cc1 | 557* | ? | 0

No. | Statin myotox sup | Yeast UUG start-2
11 | 0 | /
12 | -28 | /
13 | -3 | /
14 | 18 | i
15 | -21 | /
16 | 9 | i
17 | -3 | i
18 | 10 | i
19 | 24 | /
20 | 19 | 6

(further entries)
No. | molecule | Yeast UUG start-1 | miR122 inh | Cneo AK release
21 | Cc1ccc(NC(=O)/C(=C/c2cccc([N+](=O)[O-])c2)NC(=O)C2CCCCC2)cc1 | -15 | / | 3
22 | COc1cc(OC)c(OC)cc1/C=N/NC(=O)c1ccc2nc[nH]c2c1 | / | / | /
23 | COc1ccc(/C=N/NC(=O)c2ccc3nc[nH]c3c2)c(OC)c1OC | 346* | -9 | -6
24 | CCCC#Cc1ccc2c(c1)O[C@H](CN(C)C(=O)c1ccccc1)[C@H](C)CN([C@H](C)CO)S2(=O)=O | 6 | -8[16.7 µM] | 0
25 | COC(C#CCCN(C)C)(c1ccccc1)c1ccccc1 | / | / | /
26 | C/C(=N/NC(=O)CNC(=O)c1ccco1)c1ccco1 | -30 | / | -2
27 | C/C(=N/NC(=O)CNC(=O)c1ccncc1)c1ccco1 | 180* | -2 | 3
28 | C[C@H]1CCCCO[C@H](CN(C)C(=O)Nc2cccc3ccccc23)[C@@H](C)CN([C@@H](C)CO)C(=O)c2cc(NS(=O)(=O)c3ccc(Cl)cc3)ccc2O1 | -9 | -5[16.7 µM] | 6
29 | CC(C)(C#CC(O)(c1ccccc1)c1ccccc1)N1CCCCC1 | -2 | 2 | 2
30 | CC(O)(C#CCN1CCCCCC1)c1ccccc1 (centres undefined) | / | -1 | /

No. | Statin myotox sup | Yeast UUG start-2
21 | -19 | /
22 | 8 | /
23 | / | -5
24 | -28 | /
25 | / | -3
26 | 0 | /
27 | / | 8
28 | 24 | /
29 | 11 | /
30 | / | 1

The list goes on:
No. | molecule | Yeast UUG start-1 | miR122 inh | Cneo AK release
31 | CC(C)(C#CC(O)(c1ccccc1)c1ccccc1)N1CCCC1 | / | / | /
32 | CN1[C@@H]2c3ccc(-c4ccccc4)c(=O)n3C[C@H]1[C@H](CO)[C@H]2C(=O)NCCc1ccccc1 | 1 | 0[16.7 µM] | -2
33 | Cc1noc(C)c1NC(=O)Nc1ccc2c(c1)C(=O)N([C@@H](C)CO)C[C@H](C)[C@@H](CN(C)C)OCCCC[C@H](C)O2 | -12 | 1[16.7 µM] | 2
34 | C[C@H](O)C#Cc1ccc2c(c1)O[C@@H](CN(C)C(=O)C1CCC1)[C@H](C)CN([C@H](C)CO)S2(=O)=O | 1 | 3[16.7 µM] | -2
35 | CC(C)N(CC#CC(O)(c1ccccc1)c1ccccc1)C(C)C | / | / | /
36 | CC(=O)N1CCN(c2ccc([N+](=O)[O-])cc2)CC1 | / | / | /
37 | CC(=O)OCC(=O)N1CCN(c2ccc([N+](=O)[O-])cc2)CC1 | / | / | /
38 | CCOCC(=O)N1CCN(c2ccc([N+](=O)[O-])cc2)CC1 | 1 | -6 | 13
39 | CCOCC(=O)N1CCN(c2ccc(F)cc2)CC1 | -16 | -4 | -2
40 | Cc1ccc(S(=O)(=O)N(C)C[C@H]2Oc3ccc(NS(C)(=O)=O)cc3CC(=O)N([C@H](C)CO)C[C@H]2C)cc1 | 5 | 13[16.7 µM] | -4

No. | Statin myotox sup | Yeast UUG start-2
31 | / | 11
32 | 4 | /
33 | -9 | /
34 | -2 | /
35 | / | -6
36 | / | 0
37 | / | -5
38 | 4 | -7
39 | -6 | /
40 | 2 | /

Looked up by compound from the entries so far, two records:
No. | molecule | Yeast UUG start-1 | miR122 inh | Cneo AK release
34 | C[C@H](O)C#Cc1ccc2c(c1)O[C@@H](CN(C)C(=O)C1CCC1)[C@H](C)CN([C@H](C)CO)S2(=O)=O | 1 | 3[16.7 µM] | -2
40 | Cc1ccc(S(=O)(=O)N(C)C[C@H]2Oc3ccc(NS(C)(=O)=O)cc3CC(=O)N([C@H](C)CO)C[C@H]2C)cc1 | 5 | 13[16.7 µM] | -4

No. | Statin myotox sup | Yeast UUG start-2
34 | -2 | /
40 | 2 | /

Continued.
No. | molecule | Yeast UUG start-1 | miR122 inh | Cneo AK release
41 | COc1cc(C2CC(=O)C=C(O)C2)cc(OC)c1OC (centres undefined) | 516* | -3 | -3
42 | COc1ccc(N2C(=O)CC(c3cc(OC)c(OC)c(OC)c3)CC2=O)cc1 | -8 | 1 | 0
43 | Cn1nc(CC(=O)Nc2ccc(N3CCN(C(=O)OC(C)(C)C)CC3)cc2)c2ccccc2c1=O | 736* | -7 | -2
44 | COc1ccccc1NC(=O)Cc1nn(C)c(=O)c2ccccc12 | -19 | / | -1

No. | Statin myotox sup | Yeast UUG start-2
41 | -6 | 0
42 | / | /
43 | -13 | 4
44 | / | -1
